What was measured:
F2RL3 = molecular target: T1, F2RL3 (Homo sapiens, UniProt Q96RI0); assay: GPCR panel (control), Arrestin, CHO-K1; assay type: cell-based; details: reference agonist
T1 construct: expressed in transfected cells; host or cells: CHO-K1
T1 sequence (Q96RI0 18-385): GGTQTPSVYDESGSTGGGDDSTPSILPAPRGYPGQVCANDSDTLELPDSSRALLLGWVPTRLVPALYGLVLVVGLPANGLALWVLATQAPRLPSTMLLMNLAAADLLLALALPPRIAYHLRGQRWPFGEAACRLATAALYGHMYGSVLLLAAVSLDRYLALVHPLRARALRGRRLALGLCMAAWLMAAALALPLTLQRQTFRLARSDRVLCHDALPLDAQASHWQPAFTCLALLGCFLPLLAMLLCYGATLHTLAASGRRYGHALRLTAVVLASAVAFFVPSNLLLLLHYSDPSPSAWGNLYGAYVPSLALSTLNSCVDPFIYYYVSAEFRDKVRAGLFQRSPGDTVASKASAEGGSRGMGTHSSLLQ

Protein sequences, listed by entry. Tags and fused reporters are not part of them. Residues count along the entry.
UniProt P41586, 21-468: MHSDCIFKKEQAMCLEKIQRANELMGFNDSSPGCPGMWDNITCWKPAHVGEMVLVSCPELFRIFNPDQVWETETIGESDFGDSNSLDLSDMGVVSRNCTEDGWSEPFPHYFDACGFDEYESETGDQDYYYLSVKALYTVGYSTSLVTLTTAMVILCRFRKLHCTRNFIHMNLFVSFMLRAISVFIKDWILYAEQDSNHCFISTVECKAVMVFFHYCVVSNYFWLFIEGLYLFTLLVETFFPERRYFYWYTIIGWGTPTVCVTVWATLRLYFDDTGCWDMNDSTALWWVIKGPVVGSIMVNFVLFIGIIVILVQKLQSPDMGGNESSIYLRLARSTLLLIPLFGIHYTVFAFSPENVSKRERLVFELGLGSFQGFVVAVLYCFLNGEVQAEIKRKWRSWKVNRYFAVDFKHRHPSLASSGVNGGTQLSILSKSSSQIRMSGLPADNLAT
UniProt P55085, 26-397: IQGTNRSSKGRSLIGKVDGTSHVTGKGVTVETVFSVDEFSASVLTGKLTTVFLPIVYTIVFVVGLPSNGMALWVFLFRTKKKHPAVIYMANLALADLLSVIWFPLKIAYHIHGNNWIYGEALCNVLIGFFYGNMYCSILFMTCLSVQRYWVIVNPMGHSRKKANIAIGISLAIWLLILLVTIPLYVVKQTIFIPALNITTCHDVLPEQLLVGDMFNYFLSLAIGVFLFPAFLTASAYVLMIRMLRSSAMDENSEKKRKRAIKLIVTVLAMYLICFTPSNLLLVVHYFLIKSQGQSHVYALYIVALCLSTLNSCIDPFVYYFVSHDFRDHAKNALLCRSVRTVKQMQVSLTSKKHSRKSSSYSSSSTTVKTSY
UniProt P49190, 25-550: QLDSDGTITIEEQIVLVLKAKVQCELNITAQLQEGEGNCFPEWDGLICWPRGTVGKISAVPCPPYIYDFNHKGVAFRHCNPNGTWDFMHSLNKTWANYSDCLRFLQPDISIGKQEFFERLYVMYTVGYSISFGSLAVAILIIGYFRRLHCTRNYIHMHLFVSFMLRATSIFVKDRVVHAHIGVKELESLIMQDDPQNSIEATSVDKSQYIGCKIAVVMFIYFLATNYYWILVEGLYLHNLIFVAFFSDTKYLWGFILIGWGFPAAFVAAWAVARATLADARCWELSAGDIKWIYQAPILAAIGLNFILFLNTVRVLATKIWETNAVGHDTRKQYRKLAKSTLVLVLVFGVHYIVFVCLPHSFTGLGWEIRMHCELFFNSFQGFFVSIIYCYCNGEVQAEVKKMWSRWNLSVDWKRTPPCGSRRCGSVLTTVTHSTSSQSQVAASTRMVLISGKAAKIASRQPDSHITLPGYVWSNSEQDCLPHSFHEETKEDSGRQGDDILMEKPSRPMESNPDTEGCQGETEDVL

MRGPRX2 = molecular target: T2, MRGPRX2 (Homo sapiens, UniProt Q96LB1); assay: GPCR panel (control), Arrestin, CHO-K1; assay type: cell-based; details: reference agonist
T2 sequence (Q96LB1 1-330): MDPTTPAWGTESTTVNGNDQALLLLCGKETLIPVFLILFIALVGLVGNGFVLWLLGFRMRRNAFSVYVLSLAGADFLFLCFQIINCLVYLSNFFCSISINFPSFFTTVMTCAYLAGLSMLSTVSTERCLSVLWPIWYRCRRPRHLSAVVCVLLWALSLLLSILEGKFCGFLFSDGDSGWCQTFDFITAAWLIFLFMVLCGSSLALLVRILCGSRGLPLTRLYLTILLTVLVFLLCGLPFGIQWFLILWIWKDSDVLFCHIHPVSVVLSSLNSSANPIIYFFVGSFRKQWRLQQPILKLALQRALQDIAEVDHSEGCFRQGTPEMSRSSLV

EDNRB = molecular target: T3, EDNRB (Homo sapiens, UniProt P24530); assay: GPCR panel (control), Arrestin, CHO-K1; assay type: cell-based; details: reference agonist
T3 construct: expressed in transfected cells; host or cells: CHO-K1
T3 sequence (P24530 27-442): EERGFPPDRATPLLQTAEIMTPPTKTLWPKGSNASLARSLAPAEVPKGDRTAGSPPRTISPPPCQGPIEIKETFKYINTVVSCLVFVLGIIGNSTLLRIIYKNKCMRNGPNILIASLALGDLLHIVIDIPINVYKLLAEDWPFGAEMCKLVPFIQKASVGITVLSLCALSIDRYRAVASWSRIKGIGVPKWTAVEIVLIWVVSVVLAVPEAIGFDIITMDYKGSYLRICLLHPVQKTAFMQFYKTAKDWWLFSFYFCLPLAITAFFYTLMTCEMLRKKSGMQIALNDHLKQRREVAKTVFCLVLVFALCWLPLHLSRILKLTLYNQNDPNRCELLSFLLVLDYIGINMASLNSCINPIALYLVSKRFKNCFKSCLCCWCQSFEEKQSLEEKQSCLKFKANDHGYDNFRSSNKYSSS

ADCYAP1R1 = ADCYAP1R1 (Homo sapiens, UniProt P41586); details: reference agonist, ADCYAP1R1, CHO-K1, Arrestin
F2RL1 = molecular target: T4, F2RL1 (Homo sapiens, UniProt P55085); assay: GPCR panel (control), Arrestin, U2OS; assay type: cell-based; details: reference agonist
T4 construct: expressed in transfected cells; host or cells: U2OS

CRHR1 = molecular target: T5, CRHR1 (Homo sapiens, UniProt P34998); assay: GPCR panel (control), Arrestin, CHO-K1; assay type: cell-based; details: reference agonist
T5 construct: expressed in transfected cells; host or cells: CHO-K1
T5 sequence (P34998 24-415): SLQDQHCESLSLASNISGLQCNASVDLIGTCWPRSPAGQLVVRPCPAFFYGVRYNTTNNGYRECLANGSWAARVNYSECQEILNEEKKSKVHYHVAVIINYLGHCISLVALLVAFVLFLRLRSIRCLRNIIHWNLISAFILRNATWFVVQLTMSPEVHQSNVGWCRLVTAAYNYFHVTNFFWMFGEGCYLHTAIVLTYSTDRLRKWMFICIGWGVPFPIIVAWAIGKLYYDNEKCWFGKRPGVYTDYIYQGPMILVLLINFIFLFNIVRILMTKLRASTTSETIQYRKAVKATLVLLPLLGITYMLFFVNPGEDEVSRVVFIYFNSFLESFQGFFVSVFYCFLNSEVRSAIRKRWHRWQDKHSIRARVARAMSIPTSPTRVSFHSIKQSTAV

CRHR2 = molecular target: T6, CRHR2 (Homo sapiens, UniProt Q13324); assay: GPCR panel (control), Arrestin, CHO-K1; assay type: cell-based; details: reference agonist
T6 construct: expressed in transfected cells; host or cells: CHO-K1
T6 sequence (Q13324 1-411): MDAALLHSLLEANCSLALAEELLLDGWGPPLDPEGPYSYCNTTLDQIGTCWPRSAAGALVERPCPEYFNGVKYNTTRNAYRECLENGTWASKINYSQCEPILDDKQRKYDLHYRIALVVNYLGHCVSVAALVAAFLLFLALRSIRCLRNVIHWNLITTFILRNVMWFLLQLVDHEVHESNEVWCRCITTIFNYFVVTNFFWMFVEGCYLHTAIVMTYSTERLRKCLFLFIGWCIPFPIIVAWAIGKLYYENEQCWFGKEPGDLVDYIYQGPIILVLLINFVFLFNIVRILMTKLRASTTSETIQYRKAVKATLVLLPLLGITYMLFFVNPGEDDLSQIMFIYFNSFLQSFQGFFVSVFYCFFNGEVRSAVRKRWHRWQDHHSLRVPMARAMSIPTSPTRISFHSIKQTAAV

F2R = molecular target: T7, F2R (Homo sapiens, UniProt P25116); assay: GPCR panel (control), Arrestin, CHO-K1; assay type: cell-based; details: reference agonist
T7 construct: expressed in transfected cells; host or cells: CHO-K1
T7 sequence (P25116 22-425): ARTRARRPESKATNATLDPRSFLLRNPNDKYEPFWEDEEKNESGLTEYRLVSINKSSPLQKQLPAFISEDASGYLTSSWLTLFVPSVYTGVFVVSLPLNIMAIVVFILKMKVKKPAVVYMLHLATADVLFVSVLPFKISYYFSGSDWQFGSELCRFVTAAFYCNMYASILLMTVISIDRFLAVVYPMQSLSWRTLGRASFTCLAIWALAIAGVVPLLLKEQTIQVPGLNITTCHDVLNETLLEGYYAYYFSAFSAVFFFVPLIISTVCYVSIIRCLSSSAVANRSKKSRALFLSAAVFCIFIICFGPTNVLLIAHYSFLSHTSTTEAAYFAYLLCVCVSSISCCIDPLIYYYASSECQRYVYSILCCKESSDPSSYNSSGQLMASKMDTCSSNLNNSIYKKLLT

PTHR2 = molecular target: T8, PTHR2 (Homo sapiens, UniProt P49190); assay: GPCR panel (control), Arrestin, CHO-K1; assay type: cell-based; details: reference agonist
T8 construct: expressed in transfected cells; host or cells: CHO-K1

For AYPGKF-NH2, which EC50 (F2RL3) is on record?
Its EC50 is 12 µM.

For Cortistatin-14, which EC50 (MRGPRX2) is on record?
Its EC50 is 0.13 µM.

Endothelin-3 was tested. Which EC50 (EDNRB) did it give?
The EC50 was 0.012 µM.

For PACAP-27, which EC50 (ADCYAP1R1) is on record?
Its EC50 is 0.0047 µM.

How did the EC50 (F2RL1) turn out when SLIGRL-NH2 was run?
Its EC50 is 1 µM.

What does the source list for Sauvagine?
EC50 (CRHR1): 0.001 µM; EC80 (CRHR1): 0.059 µM; EC50 (CRHR2): 0.0098 µM

How did the EC50 (F2R) turn out when TFLLR-NH2 was run?
Its EC50 is 29 µM.

For TIP-39, which EC50 (PTHR2) is on record?
The EC50 was 0.0042 µM.

From PMC10771525 (Communications Biology, 2024)
